In BindingDB's records for doi:10.1016/s0024-3205(03)00272-8 (Merck Research Laboratories, 2003):

Target: T1, Alpha-1A adrenergic receptor (Rattus norvegicus, UniProt P43140)
T1 sequence (P43140 whole entry): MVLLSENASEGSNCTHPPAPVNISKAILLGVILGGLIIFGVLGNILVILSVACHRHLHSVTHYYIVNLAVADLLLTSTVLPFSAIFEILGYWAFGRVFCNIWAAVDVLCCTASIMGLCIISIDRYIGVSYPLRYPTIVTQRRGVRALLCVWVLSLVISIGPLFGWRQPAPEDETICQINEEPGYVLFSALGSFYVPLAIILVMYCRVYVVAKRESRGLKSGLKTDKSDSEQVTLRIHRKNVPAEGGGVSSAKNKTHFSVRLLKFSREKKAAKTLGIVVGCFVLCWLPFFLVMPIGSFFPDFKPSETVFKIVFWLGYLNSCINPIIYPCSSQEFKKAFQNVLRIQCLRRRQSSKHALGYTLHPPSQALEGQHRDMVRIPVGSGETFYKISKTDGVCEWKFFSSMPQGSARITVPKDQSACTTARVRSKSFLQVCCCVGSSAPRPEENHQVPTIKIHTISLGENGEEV

Ki: 7.6 µM
Structure (SMILES): COC(=O)C1C(O)CCC2CN3CCc4c([nH]c5ccccc45)C3CC21 (stereo unspecified) [NSC_2866]
